The list shows a part of the results, in another mix than the full data. The source made the active and inactive calls. Rule as the data show it: active = displacement above about 50%; inactive = the rest.

Protein sequences, listed by entry. Tags and fused reporters are not part of them.
UniProt P0DMV8, whole entry: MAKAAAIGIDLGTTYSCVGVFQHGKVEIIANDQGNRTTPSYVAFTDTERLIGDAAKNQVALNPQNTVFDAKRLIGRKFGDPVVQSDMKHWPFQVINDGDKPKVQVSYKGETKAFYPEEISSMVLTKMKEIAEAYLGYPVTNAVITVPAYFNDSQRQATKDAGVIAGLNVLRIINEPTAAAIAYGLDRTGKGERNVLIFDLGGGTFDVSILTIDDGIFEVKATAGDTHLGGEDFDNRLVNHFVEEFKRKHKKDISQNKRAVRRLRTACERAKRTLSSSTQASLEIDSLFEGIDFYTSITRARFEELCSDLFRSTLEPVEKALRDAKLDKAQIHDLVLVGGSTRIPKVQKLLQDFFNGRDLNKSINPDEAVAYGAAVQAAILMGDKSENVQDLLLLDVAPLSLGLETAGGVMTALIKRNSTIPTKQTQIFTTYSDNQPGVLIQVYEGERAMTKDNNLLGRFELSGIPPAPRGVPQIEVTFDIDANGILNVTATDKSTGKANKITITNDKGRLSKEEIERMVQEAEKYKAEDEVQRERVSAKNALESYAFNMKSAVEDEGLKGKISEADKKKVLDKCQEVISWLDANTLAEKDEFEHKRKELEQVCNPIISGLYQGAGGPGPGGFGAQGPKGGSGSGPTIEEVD

These results are taken from PubChem BioAssay AID583 (Sanford-Burnham Center for Chemical Genomics, 2007).

The test addresses Heat shock 70 kDa protein 1A (Homo sapiens) (UniProt P0DMV8). Kind of test: small molecules displacing fluorescent ligand from Hsp70 – biochemical, fluorescence polarization, primary screen (AID 583).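 Also: plate controls were vehicle for no effect and reference ligand for full effect.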 To be noted: Hsp70 fluorescence polarization probe displacement, mP; at 20 µM; active compounds read high.
Take `N#CC1(Nc2ccccc2)CCN(CCc2ccccc2)CC1`: the displacement was inactive: 3.5%.
Turning to `O=C(NCC1(N2CCOCC2)CCCCC1)c1cc(=O)[nH]c2ccccc12`, the displacement is inactive: 0.4%.
For `COc1ccc(NC2CCN(CCc3ccccc3)CC2)c(OC)c1`, the displacement is inactive: -3.2%.
Turning to `O=C(OC1CN2CCC1CC2)C1c2ccccc2Oc2ccccc21` (stereo not given), the displacement was inactive: 2.9%.
Take `O=C(NCC1(N2CCOCC2)CCCCC1)c1cc2ccccc2o1`: the displacement is inactive: 2.7%.
Turning to `CCOc1ncccc1C(=O)NCC1(N2CCOCC2)CCCCC1`, the displacement is inactive: 1%.
For the compound `CCC(CO)(C(=O)OC1CN2CCC1CC2)c1ccccc1` (stereo not given), the displacement is inactive: -1.9%.
Turning to `Fc1ccccc1NC1CCN(Cc2ccccc2)CC1`, the displacement is inactive: 1%.
As to `c1ccc(CN2CCC(Nc3ccccc3)CC2)cc1`, the displacement was inactive: 6.3%.
`N/C(=N\O)c1c(N)no[n+]1[O-]`: the displacement is inactive: -0.2%.
